In ChEMBL document CHEMBL4402597, “Truncated (N)-Methanocarba Nucleosides as Partial Agonists at Mouse and Human A3 Adenosine Receptors: Affinity Enhancement by N6-(2-Phenylethyl) Substitution” (J Med Chem, 2020):

How the values were obtained:
Homo sapiens = species on record: Homo sapiens; assay: Selectivity ratio of Ki for displacement of [3H]R-PIA from recombinant human A1AR expressed in HEK293 cell membranes to Ki for displacement of [125I]I-AB-MECA from recombinant human A3AR expressed in HEK293 cell membranes; format: cell-based
Mus musculus = species on record: Mus musculus; assay: Selectivity ratio of Ki for displacement of [3H]R-PIA from recombinant mouse A1AR expressed in HEK293 cell membranes to Ki for displacement of [125I]I-AB-MECA from recombinant mouse A3AR expressed in HEK293 cell membranes; format: cell-based

Row | Compound | Ratio Ki (Homo sapiens) | Ratio Ki (Mus musculus)
1 | COc1cc(CCNc2nc(C#Cc3ccccc3F)nc3c2ncn3[C@H]2[C@H](O)[C@H](O)[C@@H]3C[C@@H]32)ccc1O | 30 | –
2 | COc1cc(CCNc2nc(C#Cc3ccc(Br)s3)nc3c2ncn3[C@H]2[C@H](O)[C@H](O)[C@@H]3C[C@@H]32)ccc1O | – | > 1000
